AlphaSeq binding of Ab-14 light chain variants to a spike HR2 peptide

Values reported by Engelhart et al. 2022, doi:10.1038/s41597-022-01779-4 (FLAb copy).

Target peptide (SARS-CoV-2 spike, HR2 region): PDVDLGDISGINAS

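The starting antibody came from a phage panning campaign against this peptide. In library AAYL50, one, two or three CDR residues were substituted; doubles and triples were drawn at random. The scFvs were displayed on barcoded MATa yeast, the peptide on MATalpha yeast. Pairs that bind mate more often; barcode pairs of the diploids are counted by sequencing. Scores were corrected for input abundance and mapped to Kd with protein pairs of known affinity run in the same pool. There are three technical replicates.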

Ab-14 is the parent antibody, in scFv form: VH, then the linker GGGGSGGGGSGGGGS, then VL. The heavy chain is unchanged in all variants.
VH: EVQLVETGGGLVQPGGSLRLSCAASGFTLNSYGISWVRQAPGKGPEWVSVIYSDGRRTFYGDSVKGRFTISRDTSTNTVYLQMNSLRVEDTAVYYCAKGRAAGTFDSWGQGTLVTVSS
VL: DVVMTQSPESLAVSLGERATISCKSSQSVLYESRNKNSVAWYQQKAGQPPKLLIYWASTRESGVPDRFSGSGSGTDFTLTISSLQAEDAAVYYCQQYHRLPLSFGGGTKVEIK

Changes read parent residue, position, new residue, counted from the first residue of the VL shown. Affinities are written as log10 Kd with Kd in nM; a lower number is a better binder. "ND" means that the variant was in the library but no mating with the target was seen in that replicate; the authors take this as a sign of poor binding, and no number exists. Empty control strains, which show no peptide, gave a signal in 18% of pairings with library AAYL50; the median was 4.19 and 95% of these signals were weaker than 2.99. No background was subtracted. Also given: how often the same scFv was detected with the empty control strains, with their mean in brackets. For reference, the parent read 0.65 as the reference entry and 1.68 as a member of this library.

changes	log10 Kd (nM) by replicate	signal with controls
S26P/S58Y	2.43 / 1.91 / 2.22	4/9 (4.13)
S33P/Q96I/P101S	ND / 3.00 / ND	0/9
N37P/S62V/Q95I	ND / ND / ND	0/9
Y31W/K36I/L102A	1.29 / 1.45 / 1.26	0/9
N37I/R60V/R99V	ND / ND / 4.56	2/9 (4.57)
L30P/Y31V/E32K	2.59 / 2.85 / ND	1/9 (3.70)
S28R/S38V/Q96A	ND / ND / ND	0/9
S28E/E32F/R60C	ND / ND / ND	2/9 (4.54)
L30G/Y31V/S58D	ND / ND / ND	1/9 (3.26)
E32N/R34E/L102W	4.52 / ND / 3.88	3/9 (3.18)
R60Y/P101M/L102N	ND / ND / ND	3/9 (3.99)
S26A/N35W/S62N	1.24 / 1.46 / 1.32	3/9 (4.27)
W56P/S58K/E61Y	ND / ND / ND	0/9
V29N/S38H/A57C	4.74 / ND / 3.67	0/9
V29S/A40K/S103R	ND / ND / ND	1/9 (5.91)
N35K/S58V/R60A	4.67 / 4.72 / 5.51	6/9 (4.47)
S26F/H98V	1.15 / 1.45 / 2.10	0/9
V39G/S58Q/P101V	ND / ND / ND	0/9
R34T/S38Y/Y97V	2.90 / 2.44 / 1.93	1/9 (2.99)
S26G/S28D/E32I	2.17 / ND / ND	1/9 (2.82)
R34S/N35A/A57L	ND / 2.44 / 3.27	0/9
S38G/V39Y/T59M	ND / ND / 4.56	0/9
Q27D/N35Q/P101Q	ND / ND / ND	1/9 (4.03)
S25T/S26P/L30V	0.89 / 0.75 / 0.77	0/9
S58D/T59C/S62I	1.42 / 1.47 / 1.35	1/9 (4.95)
S26H/R60H/P101Q	1.86 / 2.29 / 2.38	1/9 (3.68)
S38G/Q96N	1.45 / 1.84 / 1.55	2/9 (3.83)
S25K/A40L/P101W	ND / ND / ND	2/9 (3.82)
W56K/S58V/H98S	-0.12 / 0.19 / -0.05	5/9 (5.10)
V29C/A57R/R99E	ND / 2.94 / ND	3/9 (4.06)
S25C/S33V/R60E	ND / ND / ND	3/9 (3.80)
Q27R/E32G/Q96P	5.64 / 4.51 / 4.80	8/9 (4.91)
K24E/L30G/Y97L	1.86 / 1.99 / 2.05	1/9 (3.63)
N35S/Q96I/S103D	ND / 2.51 / ND	0/9
S25Q/N37R/S103F	1.15 / 1.46 / 1.68	2/9 (3.90)
V29F/N35R/S62P	2.05 / 1.72 / 1.91	0/9
Q27P/R34G/P101L	ND / ND / ND	1/9 (3.03)
S62D/Q95R	2.28 / 2.01 / 2.37	2/9 (3.82)
S26F/Q27K/S28N	0.95 / 1.17 / 0.83	1/9 (2.09)
A57V/H98Y/P101I	2.99 / 3.18 / 3.24	4/9 (3.80)
R60N/L100H	ND / 3.09 / ND	0/9
E32A/V39E/H98S	4.06 / 3.53 / ND	3/9 (4.05)
E32R/N37C/P101T	ND / ND / ND	0/9
S26V/V29N/N35L	1.21 / 1.16 / 1.13	2/9 (4.17)
V39Y/Q95F/L102A	ND / ND / ND	0/9
S26F/L30M/R60V	2.33 / 2.63 / 2.46	0/9
S26Q/S38M/L102G	4.54 / ND / ND	2/9 (4.70)

From the list, the first 7 with no signal in any replicate:

changes	log10 Kd (nM) by replicate	signal with controls
N37P/S62V/Q95I	ND / ND / ND	0/9
S28R/S38V/Q96A	ND / ND / ND	0/9
S28E/E32F/R60C	ND / ND / ND	2/9 (4.54)
L30G/Y31V/S58D	ND / ND / ND	1/9 (3.26)
R60Y/P101M/L102N	ND / ND / ND	3/9 (3.99)
W56P/S58K/E61Y	ND / ND / ND	0/9
V29S/A40K/S103R	ND / ND / ND	1/9 (5.91)